Assay outcomes as filed in PubChem.
CAL PDZ FP-1 = untagged CAL PDZ binding inhibitors, primary screen, biochemical, fluorescence polarization, HTS; 300,000 tested, 0.92% active; AID 602252, 2012; inhibition, % at 24.9 µM; purified CAL PDZ, TMR-peptide fluorescence polarization, 1 h; Golgi-associated PDZ and coiled-coil motif-containing protein (Homo sapiens), Q9HD26;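 active means mean inhibition of at least 30% with at least half of replicates also reaching 30%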
Vif imaging = HIV Vif self-association inhibitors, primary screen, imaging, HEK293T, single point; HEK293T cells, Vif self-association by quenched fluorescence, 24 h; inhibition, % at 7.49 µM; 340,000 tested, 0.35% active; in the data active means inhibition above about 50%, passing the limit was not always enough
PglD DTNB = C. jejuni PglD acetyltransferase inhibitors, primary screen, biochemical, DTNB colorimetric, single point | purified PglD enzyme, DTNB colorimetric CoA detection | inhibition, % at 12.5 µM | 360,000 tested, 0.098% active | UDP-N-acetylbacillosamine N-acetyltransferase PglD (Campylobacter jejuni) | AID 602405, 2012; in the data active means inhibition above about 16%, passing the limit was not always enough
ARNT-TACC3 inh = disruptors of ARNT/TACC3 protein interaction, primary screen, biochemical, AlphaScreen, single concentration; 390,000 tested, 0.66% active; Transforming acidic coiled-coil-containing protein 3 (Homo sapiens), Q9Y6A5; inhibition, % at 9.99 µM; AlphaScreen His-ARNT PAS-B/GST-TACC3 binding, luminescence; TACC3 fragment carries E629A point mutation;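 active means mean inhibition of replicates at least 50% and at least half of replicates each reaching 50%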
CAL PDZ FP-2 = CAL PDZ peptide-binding inhibitors, primary screen, biochemical, fluorescence polarization, Cer-tagged CAL PDZ, HTS | Golgi-associated PDZ and coiled-coil motif-containing protein (Homo sapiens), Q9HD26 | purified CAL PDZ, TMR-peptide fluorescence polarization, 1 h | AID 504414, 2011 | 330,000 tested, 0.02% active | inhibition, % at 20 µM;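 active means highest replicate inhibition of at least 40%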
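Test system: purified CerCALP PDZ construct; Compound dosing: one concentration, 20 µM compound; Also added: TMR-labelled reporter peptide T*-PRC34 bound in PDZ groove; Read-out: inhibition from polarization loss; Controls: unlabelled peptide and DMSO controls; Signal: FP readout, S and P plane fluorescence; Incubation: 1 h at RT.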
Yeast UUG start = alters start codon recognition fidelity in yeast; S. cerevisiae UUG-firefly luciferase reporter, luminescence/redox ratio; activity score, % at 18.7 µM; actives 0.13% (n = 350,000); AID 602363;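 active = replicate mean at a twofold rise or more, about +100% in these data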;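 also: firefly luciferase made from a UUG start codon reports start codon fidelity; reporter light over untreated wells divided by growth signal over untreated wells; some hits fall short of that in this replicate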
A number is an active result; i = inactive; nt = no result. This is a sample that favours compounds with a hit; in the whole collection about 1.6% have one here.

SMILES	CAL PDZ FP-1	Vif imaging	PglD DTNB	ARNT-TACC3 inh	CAL PDZ FP-2	Yeast UUG start
CN1C(=S)SC(/[N+]([O-])=C\c2ccccc2)C1(C)C (stereo not drawn)	i	i	i	i	i	i
O=C(C1CCCC1)N1CCCCN2[C@H](C1)[C@@H](c1ccc(-c3cccc(F)c3)cc1)[C@@H]2CO	nt	nt	i	i	nt	i
Cc1ccc(C(=O)N[C@H](C(=O)OCc2nnc(-c3ccccc3)o2)C(C)C)cc1	49.9	i	i	i	i	i
CC(C)[C@H](NC(=O)c1ccccc1)C(=O)OCc1nnc(-c2ccccc2)o1	i	i	nt	i	i	nt
Cc1ccc(S(=O)(=O)N[C@@H]2CC[C@@H](CC(=O)NCc3ccc(Cl)c(Cl)c3)O[C@H]2CO)cc1	nt	nt	i	i	nt	i
Cc1c(Cl)cccc1NC(=O)CC(C(=O)O)C1CCCO1 (stereo not drawn)	i	98.1	i	i	i	i
CC(C)NC(=O)N1C[C@H]2[C@@H](c3ccccc31)[C@H](CO)N2C(=O)Nc1ccccc1	nt	nt	i	i	nt	i
Cc1ccc(S(=O)(=O)Nc2cccc(-n3cnnn3)c2)cc1	53.4	i	i	i	i	i
O=S(=O)(Nc1cccc(-n2cnnn2)c1)c1ccc(F)cc1	i	i	nt	i	i	nt
CC(C)C(=O)Nc1ccc2c(c1)C(=O)N(C)[C@@H]1CC[C@H](CC(=O)Nc3ccccc3)O[C@H]1CO2	nt	nt	i	i	nt	i
Fc1ccc(N2CCN(c3ncnc4c3nnn4Cc3ccccc3Cl)CC2)cc1	i	nt	i	i	i	i
O=C(c1ccco1)N1CCN(c2ncnc3c2nnn3Cc2ccccc2Cl)CC1	i	60.3	i	i	i	i
O=C(Nc1ccc(F)cc1)C1CCCN1S(=O)(=O)c1cccc2nsnc12 (stereo not drawn)	128.2	i	i	i	i	i
O=C(Nc1ccc(F)cc1F)C1CCCN1S(=O)(=O)c1cccc2nsnc12 (stereo not drawn)	i	i	i	i	i	i
CO[C@@H]1CN(C)C(=O)c2ccc(NC(=O)C3CCC3)cc2OC[C@@H](C)N(C(=O)NC(C)C)C[C@@H]1C	nt	nt	i	i	nt	i
Cc1ccc(NC(=O)c2cc(NC(=O)c3ccccc3C(=O)O)ccc2N2CCCCC2)cc1	50.7	i	nt	i	i	nt
Cc1ccc(C(=O)NCC(=O)NCc2cc(=O)n(C)c(=O)n2C)cc1C	44.5	i	i	i	i	i
O=C(C[C@H]1C[C@H]2c3cc(NC(=O)CC4CC4)ccc3O[C@H]2[C@H](CO)O1)NCc1ccc(Cl)cc1	nt	nt	i	i	nt	nt
CC(C)CC#Cc1ccc2c(c1)O[C@H](CN(C)C(=O)CC1CC1)[C@@H](C)CN([C@H](C)CO)S2(=O)=O	nt	nt	i	i	nt	i
Cc1ccc([N+](=O)[O-])c(OCCN2CCCCCC2)c1	56.7	i	nt	i	i	nt
O=C(c1cccs1)N1CCCC1	i	i	i	i	i	i
O=C(c1cccs1)N1CCN(C(=O)c2cccs2)C1=S	i	75.8	nt	i	i	nt
COC(=O)C[C@H]1CC[C@@H](NS(=O)(=O)c2ccc(OC)cc2)[C@H](CO)O1	nt	nt	i	48.0	nt	i
COc1cccc(S(=O)(=O)N[C@H]2CC[C@@H](CC(=O)NCc3ccc(Cl)cc3)O[C@H]2CO)c1	nt	nt	i	35.8	nt	i
CC(=O)N[C@H]1CC[C@H](CC(=O)NCc2ccc(Cl)cc2)O[C@H]1CO	nt	nt	16.7	i	nt	i
COc1ccc(-c2ccc([C@H]3[C@H](CO)N4CCCCN(C(=O)NC(C)C)C[C@@H]34)cc2)cc1	nt	nt	i	i	nt	i
CN(CC(=O)Nc1ccccc1Cl)C(=O)CN1C(=O)NC(c2ccccc2)(c2ccccc2)C1=O	84.8	i	i	i	i	i
O=S(=O)(c1ccccc1)N1CCN(Cc2cccc(OCCO)c2)CC1	nt	nt	i	i	nt	i
